Results taken from patent publication US8987239B2, “19-nor-steroid derivatives with a 15α,16α-methylene group and a saturated 17,17-spirolactone ring, use thereof, and medicaments containing said derivatives” (Bayer Intellectual Property GmbH, priority 2007, dated 2015).

Protein sequences, listed by entry. Tags and fused reporters are not part of them. Residues count along the entry.
UniProt P06401, whole entry, species assumed: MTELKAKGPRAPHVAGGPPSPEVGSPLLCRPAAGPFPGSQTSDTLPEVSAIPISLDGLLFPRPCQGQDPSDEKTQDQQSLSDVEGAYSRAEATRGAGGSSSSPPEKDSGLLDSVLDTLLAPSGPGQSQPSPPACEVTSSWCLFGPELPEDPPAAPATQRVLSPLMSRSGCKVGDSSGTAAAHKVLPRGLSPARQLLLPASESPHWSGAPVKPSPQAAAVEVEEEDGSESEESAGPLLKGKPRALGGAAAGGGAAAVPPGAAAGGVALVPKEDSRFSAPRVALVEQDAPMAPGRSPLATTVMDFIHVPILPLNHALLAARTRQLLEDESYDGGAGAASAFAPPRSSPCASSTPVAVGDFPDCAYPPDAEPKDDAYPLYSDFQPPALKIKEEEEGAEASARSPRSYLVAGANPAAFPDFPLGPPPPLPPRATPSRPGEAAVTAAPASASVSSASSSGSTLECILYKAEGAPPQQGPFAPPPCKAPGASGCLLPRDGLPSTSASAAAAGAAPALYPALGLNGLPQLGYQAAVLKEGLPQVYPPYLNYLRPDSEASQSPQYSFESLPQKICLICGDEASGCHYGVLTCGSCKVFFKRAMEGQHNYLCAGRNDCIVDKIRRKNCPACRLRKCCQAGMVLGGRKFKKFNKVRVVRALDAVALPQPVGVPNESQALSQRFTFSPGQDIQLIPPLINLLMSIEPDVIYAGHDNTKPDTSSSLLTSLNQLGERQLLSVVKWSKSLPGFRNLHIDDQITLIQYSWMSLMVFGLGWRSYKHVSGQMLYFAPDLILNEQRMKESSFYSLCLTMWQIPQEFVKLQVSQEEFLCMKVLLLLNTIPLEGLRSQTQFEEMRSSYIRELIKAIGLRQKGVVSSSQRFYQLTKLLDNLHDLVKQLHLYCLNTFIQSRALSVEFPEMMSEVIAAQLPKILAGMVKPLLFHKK
UniProt P06401, 679-913, species assumed: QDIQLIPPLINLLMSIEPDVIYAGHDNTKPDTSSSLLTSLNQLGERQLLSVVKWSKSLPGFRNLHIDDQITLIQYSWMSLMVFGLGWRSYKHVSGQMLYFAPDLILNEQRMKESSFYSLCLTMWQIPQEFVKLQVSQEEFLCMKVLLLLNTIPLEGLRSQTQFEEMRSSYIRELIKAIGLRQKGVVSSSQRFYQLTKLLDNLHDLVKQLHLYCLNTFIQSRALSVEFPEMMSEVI

What was measured:
progesterone receptor [1] = molecular target: T1, progesterone receptor (Homo sapiens (Human), UniProt P06401); experiment: Progesterone receptor binding test (displacement of 3H-progesterone); details: for Receptor binding Progesterone receptor Competition factor: CF relative to progesterone (=1), CF <1 means higher affinity; for CF PR/CF MR: ratio of competition factors, progesterone receptor to mineralocorticoid receptor; for IC50: read-out: Receptor binding Progesterone receptor IC50, cytosol from PR-expressing insect cells (Hi5), 3H-progesterone
progesterone receptor [2] = molecular target: T1, progesterone receptor; experiment: Progestational action by transactivation test (CHO K1 reporter cells, luciferase); assay type: cell-based
Protocol: 4. Determination of Progestational Action by Means of Transactivation Tests:
The test compounds were added eight hours later, and the cells were incubated with the compounds for 16 hours. The tests were carried out in triplicate. At the end of incubation the medium containing the effector was removed and replaced with lysis buffer. After luciferase assay substrate (Promega, #E1501) had been added, the 96-well plates were then put in a microplate luminometer (Pherastar, BMG labtech), and the luminescence was measured. The IC50 values were evaluated using software for calculating dose-effect relations.

Row | Compound | Receptor binding Progesterone receptor Competition factor (progesterone receptor [1]) | CF PR/CF MR (progesterone receptor [1]) | IC50 (progesterone receptor [1]) | EC50 (progesterone receptor [2])
1 | C[C@]12CCC3C4CCC(=O)C=C4CCC3C1C1CC1[C@@]21CCC(=O)O1 (stereo partly drawn) [Example 1, 17β-Hydroxy-15α,16α-methylene-19-nor-17α-pregna-4-en-3-one-21-carboxylic acid γ-lactone] | 0.74 | 0.41 | 15 nM | 0.1 nM
2 | CC1CC2=CC(=O)CCC2C2CC[C@@]3(C)C(C4CC4[C@@]34CCC(=O)O4)C12 (stereo partly drawn) [Example 3, 17β-Hydroxy-7α-methyl-15α,16α-methylene-19-nor-17α-pregna-4-en-3-one-21-carboxylicacid γ-lactone] | 0.60 | 0.46 | 12.1 nM | 0.6 nM
